Experimental data as given in publication PMC7794379, “Thioesterase-mediated side chain transesterification generates potent Gq signaling inhibitor FR900359” (Nature Communications, 2021).

Test system: HEK293 Gαq/Gα11-null cells (endogenous muscarinic M3 receptors)
Format: cell-based, human

C[N+](C)(C)CCOC(N)=O [carbachol]
DMR response in words: unresponsive
